The chains behind the UniProt entries cited, without tags or fusion partners. Where a name states a change or a piece, a line headed by the entry shows the natural chain unless it says otherwise.
UniProt P23458: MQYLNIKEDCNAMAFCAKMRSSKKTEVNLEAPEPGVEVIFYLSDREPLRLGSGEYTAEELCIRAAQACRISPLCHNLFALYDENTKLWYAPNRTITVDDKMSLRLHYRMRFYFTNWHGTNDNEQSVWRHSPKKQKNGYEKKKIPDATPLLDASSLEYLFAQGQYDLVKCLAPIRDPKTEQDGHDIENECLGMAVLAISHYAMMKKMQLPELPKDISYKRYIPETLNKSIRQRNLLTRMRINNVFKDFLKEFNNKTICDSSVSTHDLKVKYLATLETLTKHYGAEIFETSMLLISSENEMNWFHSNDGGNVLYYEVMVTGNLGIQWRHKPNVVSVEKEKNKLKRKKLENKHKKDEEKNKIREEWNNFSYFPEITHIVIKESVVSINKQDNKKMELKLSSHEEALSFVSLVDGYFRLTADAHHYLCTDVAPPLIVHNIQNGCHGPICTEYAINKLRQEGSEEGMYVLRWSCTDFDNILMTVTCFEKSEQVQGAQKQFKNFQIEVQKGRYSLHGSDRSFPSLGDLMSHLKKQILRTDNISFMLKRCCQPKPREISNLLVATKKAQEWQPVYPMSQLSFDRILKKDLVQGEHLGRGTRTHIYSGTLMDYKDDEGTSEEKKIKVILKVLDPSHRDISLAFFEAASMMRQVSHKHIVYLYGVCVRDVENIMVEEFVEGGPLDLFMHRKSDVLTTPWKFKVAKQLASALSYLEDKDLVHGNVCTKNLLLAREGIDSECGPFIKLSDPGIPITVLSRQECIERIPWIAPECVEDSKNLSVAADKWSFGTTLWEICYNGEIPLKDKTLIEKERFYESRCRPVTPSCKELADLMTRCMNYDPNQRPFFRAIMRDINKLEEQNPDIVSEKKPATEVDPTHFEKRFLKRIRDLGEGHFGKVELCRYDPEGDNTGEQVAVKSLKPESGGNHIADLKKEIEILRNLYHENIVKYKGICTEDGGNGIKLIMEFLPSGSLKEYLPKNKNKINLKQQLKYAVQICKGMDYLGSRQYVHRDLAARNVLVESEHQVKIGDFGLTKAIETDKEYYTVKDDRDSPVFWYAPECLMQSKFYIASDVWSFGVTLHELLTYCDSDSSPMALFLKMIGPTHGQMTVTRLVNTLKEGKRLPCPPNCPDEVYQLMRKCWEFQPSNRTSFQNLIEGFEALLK
UniProt O14965: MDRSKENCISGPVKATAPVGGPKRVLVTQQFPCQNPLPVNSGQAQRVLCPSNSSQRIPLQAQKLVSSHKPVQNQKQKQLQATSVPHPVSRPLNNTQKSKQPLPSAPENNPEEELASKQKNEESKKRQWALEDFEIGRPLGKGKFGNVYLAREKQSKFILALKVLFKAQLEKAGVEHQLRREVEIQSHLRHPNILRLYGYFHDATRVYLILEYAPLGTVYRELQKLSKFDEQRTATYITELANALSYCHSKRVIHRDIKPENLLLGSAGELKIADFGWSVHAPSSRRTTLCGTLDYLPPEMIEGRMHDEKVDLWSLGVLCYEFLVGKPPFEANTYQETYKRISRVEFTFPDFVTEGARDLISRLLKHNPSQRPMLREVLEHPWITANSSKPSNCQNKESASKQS
UniProt P51451: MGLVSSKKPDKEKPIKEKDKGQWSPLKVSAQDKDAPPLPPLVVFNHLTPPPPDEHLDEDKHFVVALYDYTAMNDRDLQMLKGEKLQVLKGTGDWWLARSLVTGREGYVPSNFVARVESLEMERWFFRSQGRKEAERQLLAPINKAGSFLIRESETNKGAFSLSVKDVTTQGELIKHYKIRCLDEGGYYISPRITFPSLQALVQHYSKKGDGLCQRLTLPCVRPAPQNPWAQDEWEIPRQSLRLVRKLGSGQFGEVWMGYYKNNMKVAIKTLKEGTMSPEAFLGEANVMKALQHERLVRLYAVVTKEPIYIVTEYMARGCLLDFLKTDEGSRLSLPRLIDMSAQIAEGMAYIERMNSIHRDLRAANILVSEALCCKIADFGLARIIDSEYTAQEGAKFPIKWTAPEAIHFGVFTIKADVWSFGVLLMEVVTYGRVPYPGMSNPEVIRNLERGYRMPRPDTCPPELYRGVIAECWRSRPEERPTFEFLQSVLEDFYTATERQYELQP
UniProt Q5S007: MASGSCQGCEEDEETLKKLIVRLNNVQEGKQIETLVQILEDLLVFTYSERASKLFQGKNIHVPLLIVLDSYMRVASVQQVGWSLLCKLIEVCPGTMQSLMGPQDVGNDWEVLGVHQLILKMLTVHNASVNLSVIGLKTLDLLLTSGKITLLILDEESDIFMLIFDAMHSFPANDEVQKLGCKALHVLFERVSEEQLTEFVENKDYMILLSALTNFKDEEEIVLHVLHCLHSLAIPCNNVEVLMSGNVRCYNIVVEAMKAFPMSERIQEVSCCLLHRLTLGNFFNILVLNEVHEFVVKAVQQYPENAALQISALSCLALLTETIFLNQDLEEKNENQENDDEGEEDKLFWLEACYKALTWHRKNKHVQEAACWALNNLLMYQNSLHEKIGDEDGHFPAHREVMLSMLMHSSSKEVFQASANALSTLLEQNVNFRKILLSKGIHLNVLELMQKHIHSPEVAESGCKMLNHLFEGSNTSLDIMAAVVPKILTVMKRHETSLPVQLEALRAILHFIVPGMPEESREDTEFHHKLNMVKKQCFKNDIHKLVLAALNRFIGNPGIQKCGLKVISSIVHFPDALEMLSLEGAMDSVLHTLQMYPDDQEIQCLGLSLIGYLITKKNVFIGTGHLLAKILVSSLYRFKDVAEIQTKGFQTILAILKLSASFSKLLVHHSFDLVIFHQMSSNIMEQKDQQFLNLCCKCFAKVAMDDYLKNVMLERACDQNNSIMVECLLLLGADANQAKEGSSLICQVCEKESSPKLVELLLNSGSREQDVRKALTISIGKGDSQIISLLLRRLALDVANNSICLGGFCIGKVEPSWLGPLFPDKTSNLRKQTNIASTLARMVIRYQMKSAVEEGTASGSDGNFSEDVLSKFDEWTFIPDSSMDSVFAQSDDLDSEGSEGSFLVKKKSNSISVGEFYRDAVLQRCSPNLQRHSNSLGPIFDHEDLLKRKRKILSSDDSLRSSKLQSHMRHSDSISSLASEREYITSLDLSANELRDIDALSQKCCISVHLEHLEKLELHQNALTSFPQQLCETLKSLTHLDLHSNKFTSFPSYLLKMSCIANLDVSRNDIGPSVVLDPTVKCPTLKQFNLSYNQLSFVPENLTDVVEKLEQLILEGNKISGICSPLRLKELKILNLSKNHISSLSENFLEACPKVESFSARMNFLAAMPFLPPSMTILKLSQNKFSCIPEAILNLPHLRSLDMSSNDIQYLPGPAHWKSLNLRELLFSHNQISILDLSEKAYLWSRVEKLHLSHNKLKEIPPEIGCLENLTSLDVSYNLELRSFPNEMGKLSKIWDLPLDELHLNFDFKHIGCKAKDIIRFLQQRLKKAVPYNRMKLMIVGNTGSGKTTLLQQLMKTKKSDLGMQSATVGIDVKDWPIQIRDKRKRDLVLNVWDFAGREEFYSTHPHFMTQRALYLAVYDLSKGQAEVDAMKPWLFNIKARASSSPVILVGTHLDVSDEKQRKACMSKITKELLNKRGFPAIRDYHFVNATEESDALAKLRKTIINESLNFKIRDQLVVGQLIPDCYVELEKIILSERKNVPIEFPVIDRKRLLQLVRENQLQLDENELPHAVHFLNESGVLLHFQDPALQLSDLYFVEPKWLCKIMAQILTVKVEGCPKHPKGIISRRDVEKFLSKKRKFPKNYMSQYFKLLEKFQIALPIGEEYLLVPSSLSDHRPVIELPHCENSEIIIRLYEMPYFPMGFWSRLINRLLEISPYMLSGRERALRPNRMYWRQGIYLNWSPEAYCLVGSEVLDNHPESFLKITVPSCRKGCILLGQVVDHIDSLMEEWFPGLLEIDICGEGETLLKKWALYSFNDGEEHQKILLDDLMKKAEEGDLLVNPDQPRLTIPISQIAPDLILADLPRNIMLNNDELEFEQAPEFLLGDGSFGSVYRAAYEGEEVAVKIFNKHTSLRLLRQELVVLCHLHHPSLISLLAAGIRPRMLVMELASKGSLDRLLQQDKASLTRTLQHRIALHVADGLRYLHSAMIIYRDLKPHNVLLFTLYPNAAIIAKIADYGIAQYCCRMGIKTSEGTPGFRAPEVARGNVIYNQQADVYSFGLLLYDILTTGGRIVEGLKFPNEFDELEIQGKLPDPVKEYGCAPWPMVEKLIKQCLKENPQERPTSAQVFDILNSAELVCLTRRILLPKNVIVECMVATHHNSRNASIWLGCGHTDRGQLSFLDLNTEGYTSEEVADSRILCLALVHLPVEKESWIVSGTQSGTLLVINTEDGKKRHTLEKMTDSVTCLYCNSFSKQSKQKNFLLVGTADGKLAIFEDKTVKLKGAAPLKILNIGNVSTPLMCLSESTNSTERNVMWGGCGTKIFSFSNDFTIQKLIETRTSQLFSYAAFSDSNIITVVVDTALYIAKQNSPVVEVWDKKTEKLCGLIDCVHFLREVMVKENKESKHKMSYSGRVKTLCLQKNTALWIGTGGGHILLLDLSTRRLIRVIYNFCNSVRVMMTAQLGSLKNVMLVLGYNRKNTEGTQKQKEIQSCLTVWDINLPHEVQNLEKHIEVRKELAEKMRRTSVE
UniProt P41240: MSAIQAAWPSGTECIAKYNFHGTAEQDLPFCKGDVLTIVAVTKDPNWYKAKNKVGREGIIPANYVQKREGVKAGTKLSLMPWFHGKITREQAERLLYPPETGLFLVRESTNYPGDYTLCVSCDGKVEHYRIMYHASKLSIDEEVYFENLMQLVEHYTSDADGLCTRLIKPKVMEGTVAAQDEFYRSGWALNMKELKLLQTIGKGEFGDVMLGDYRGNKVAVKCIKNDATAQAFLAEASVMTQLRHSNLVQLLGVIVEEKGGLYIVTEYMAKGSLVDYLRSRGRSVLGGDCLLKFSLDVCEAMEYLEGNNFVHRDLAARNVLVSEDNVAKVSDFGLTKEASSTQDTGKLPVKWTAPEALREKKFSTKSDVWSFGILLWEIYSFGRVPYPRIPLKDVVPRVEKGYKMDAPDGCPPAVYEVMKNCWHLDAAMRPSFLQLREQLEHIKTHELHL
UniProt P31749: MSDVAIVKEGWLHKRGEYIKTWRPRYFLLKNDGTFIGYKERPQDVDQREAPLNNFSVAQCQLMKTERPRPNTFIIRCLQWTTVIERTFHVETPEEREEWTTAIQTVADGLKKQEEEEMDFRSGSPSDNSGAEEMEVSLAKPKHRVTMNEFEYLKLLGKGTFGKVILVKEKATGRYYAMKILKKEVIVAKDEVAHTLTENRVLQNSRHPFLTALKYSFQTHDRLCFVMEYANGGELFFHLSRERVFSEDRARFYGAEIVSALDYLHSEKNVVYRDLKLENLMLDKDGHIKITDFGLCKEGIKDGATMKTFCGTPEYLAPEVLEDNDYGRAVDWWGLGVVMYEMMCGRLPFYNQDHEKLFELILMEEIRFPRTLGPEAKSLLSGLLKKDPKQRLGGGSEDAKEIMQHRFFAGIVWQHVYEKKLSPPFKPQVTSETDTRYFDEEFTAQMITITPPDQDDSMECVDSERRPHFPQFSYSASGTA
UniProt P15056, whole entry: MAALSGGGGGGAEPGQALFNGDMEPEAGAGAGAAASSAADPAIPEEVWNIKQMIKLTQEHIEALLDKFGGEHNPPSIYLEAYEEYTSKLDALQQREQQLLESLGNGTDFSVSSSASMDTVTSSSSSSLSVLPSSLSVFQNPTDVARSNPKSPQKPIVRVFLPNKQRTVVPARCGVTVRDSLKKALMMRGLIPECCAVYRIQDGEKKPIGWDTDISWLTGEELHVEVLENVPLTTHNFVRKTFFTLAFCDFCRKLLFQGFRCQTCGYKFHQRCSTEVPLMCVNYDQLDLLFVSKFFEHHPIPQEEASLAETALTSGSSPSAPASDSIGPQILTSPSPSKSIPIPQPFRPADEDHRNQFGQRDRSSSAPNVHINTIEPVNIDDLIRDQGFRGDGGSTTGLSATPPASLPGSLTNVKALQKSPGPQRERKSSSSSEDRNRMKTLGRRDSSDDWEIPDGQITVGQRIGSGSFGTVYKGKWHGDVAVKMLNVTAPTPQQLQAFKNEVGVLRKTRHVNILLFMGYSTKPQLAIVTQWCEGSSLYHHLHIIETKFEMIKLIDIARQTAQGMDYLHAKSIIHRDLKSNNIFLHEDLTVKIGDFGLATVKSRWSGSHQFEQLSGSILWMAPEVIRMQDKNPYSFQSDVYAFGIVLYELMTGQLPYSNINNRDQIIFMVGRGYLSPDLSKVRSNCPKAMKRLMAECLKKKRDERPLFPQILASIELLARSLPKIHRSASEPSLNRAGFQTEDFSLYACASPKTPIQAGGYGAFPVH
UniProt P11309, whole entry, looked up: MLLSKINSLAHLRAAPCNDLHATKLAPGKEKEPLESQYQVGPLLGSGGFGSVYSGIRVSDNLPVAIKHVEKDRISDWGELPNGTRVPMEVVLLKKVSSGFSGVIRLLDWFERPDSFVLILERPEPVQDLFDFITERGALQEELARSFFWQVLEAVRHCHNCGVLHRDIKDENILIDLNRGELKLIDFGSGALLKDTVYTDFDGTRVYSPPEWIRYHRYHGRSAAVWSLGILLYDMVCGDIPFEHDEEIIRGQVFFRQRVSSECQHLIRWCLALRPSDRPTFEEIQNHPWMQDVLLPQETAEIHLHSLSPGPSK

In ChEMBL document CHEMBL5579859, “Discovery of novel indazole derivatives as second-generation TRK inhibitors” (Eur J Med Chem, 2024):

Legend:
[1] = biological target: ALK tyrosine kinase receptor (Homo sapiens) (UniProt Q9UM73); test: Inhibition of ALK (unknown origin) at 1 uM by SelectScreen assay relative to control
[2] = biological target: Tyrosine-protein kinase JAK1 (Homo sapiens) (UniProt P23458); test: Inhibition of JAK1 (unknown origin) at 1 uM by SelectScreen assay relative to control
[3] = biological target: Serine/threonine-protein kinase PLK4 (Homo sapiens) (UniProt O00444); test: Inhibition of PLK4 (unknown origin) at 1 uM by SelectScreen assay relative to control
[4] = biological target: Tyrosine-protein kinase BTK (Homo sapiens) (UniProt Q06187); test: Inhibition of BTK (unknown origin) at 1 uM by SelectScreen assay relative to control
[5] = biological target: Tyrosine-protein kinase receptor UFO (Homo sapiens) (UniProt P30530); test: Inhibition of AXL (unknown origin) at 1 uM by SelectScreen assay relative to control
[6] = biological target: Aurora kinase A (Homo sapiens) (UniProt O14965); test: Inhibition of Aurora A (unknown origin) at 1 uM by SelectScreen assay relative to control
[7] = biological target: Tyrosine-protein kinase Blk (Homo sapiens) (UniProt P51451); test: Inhibition of BLK (unknown origin) at 1 uM by SelectScreen assay relative to control
[8] = biological target: Receptor-type tyrosine-protein kinase FLT3 (Homo sapiens) (UniProt P36888); test: Inhibition of FLT3 (unknown origin) at 1 uM by SelectScreen assay relative to control
[9] = biological target: Leucine-rich repeat serine/threonine-protein kinase 2 (Homo sapiens) (UniProt Q5S007); test: Inhibition of LRRK2 (unknown origin) at 1 uM by SelectScreen assay relative to control
[10] = biological target: Tyrosine-protein kinase Fyn (Homo sapiens) (UniProt P06241); test: Inhibition of FYN (unknown origin) at 1 uM by SelectScreen assay relative to control
[11] = biological target: Dual specificity protein kinase CLK2 (Homo sapiens) (UniProt P49760); test: Inhibition of CLK2 (unknown origin) at 1 uM by SelectScreen assay relative to control
[12] = biological target: TRAF2 and NCK-interacting protein kinase (Homo sapiens) (UniProt Q9UKE5); test: Inhibition of TNIK (unknown origin) at 1 uM by SelectScreen assay relative to control
[13] = biological target: Rho-associated protein kinase 1 (Homo sapiens) (UniProt Q13464); test: Inhibition of ROCK1 (unknown origin) at 1 uM by SelectScreen assay relative to control
[14] = biological target: Angiopoietin-1 receptor (Homo sapiens) (UniProt Q02763); test: Inhibition of Tie2 (unknown origin) at 1 uM by SelectScreen assay relative to control
[15] = biological target: Tyrosine-protein kinase ABL1 (Homo sapiens) (UniProt P00519); test: Inhibition of ABL1 (unknown origin) at 1 uM by SelectScreen assay relative to control
[16] = biological target: Serine/threonine-protein kinase VRK2 (Homo sapiens) (UniProt Q86Y07); test: Inhibition of VRK2 (unknown origin) at 1 uM by SelectScreen assay relative to control
[17] = biological target: Serine/threonine-protein kinase SIK1 (Homo sapiens) (UniProt P57059); test: Inhibition of SIK1 (unknown origin) at 1 uM by SelectScreen assay relative to control
[18] = biological target: Tyrosine-protein kinase SYK (Homo sapiens) (UniProt P43405); test: Inhibition of SYK (unknown origin) at 1 uM by SelectScreen assay relative to control
[19] = biological target: Tyrosine-protein kinase CSK (Homo sapiens) (UniProt P41240); test: Inhibition of CSK (unknown origin) at 1 uM by SelectScreen assay relative to control
[20] = biological target: Serine/threonine-protein kinase PAK 4 (Homo sapiens) (UniProt O96013); test: Inhibition of PAK4 (unknown origin) at 1 uM by SelectScreen assay relative to control
[21] = biological target: Serine/threonine-protein kinase PLK1 (Homo sapiens) (UniProt P53350); test: Inhibition of PLK1 (unknown origin) at 1 uM by SelectScreen assay relative to control
[22] = biological target: Cyclin-dependent kinase 5 (Homo sapiens) (UniProt Q00535); test: Inhibition of CDK5 (unknown origin) at 1 uM by SelectScreen assay relative to control
[23] = biological target: Inhibitor of nuclear factor kappa-B kinase subunit beta (Homo sapiens) (UniProt O14920); test: Inhibition of IKK-beta (unknown origin) at 1 uM by SelectScreen assay relative to control
[24] = biological target: Serine/threonine-protein kinase TBK1 (Homo sapiens) (UniProt Q9UHD2); test: Inhibition of TBK1 (unknown origin) at 1 uM by SelectScreen assay relative to control
[25] = biological target: Wee1-like protein kinase (Homo sapiens) (UniProt P30291); test: Inhibition of WEE1 (unknown origin) at 1 uM by SelectScreen assay relative to control
[26] = biological target: RAC-alpha serine/threonine-protein kinase (Homo sapiens) (UniProt P31749); test: Inhibition of PKB-alpha (unknown origin) at 1 uM by SelectScreen assay relative to control
[27] = biological target: Serine/threonine-protein kinase B-raf (Homo sapiens) (UniProt P15056); test: Inhibition of BRAF (unknown origin) at 1 uM by SelectScreen assay relative to control
[28] = biological target: Serine/threonine-protein kinase Chk2 (Homo sapiens) (UniProt O96017); test: Inhibition of CHK2 (unknown origin) at 1 uM by SelectScreen assay relative to control
[29] = biological target: Serine/threonine-protein kinase/endoribonuclease IRE2 (Homo sapiens) (UniProt Q76MJ5); test: Inhibition of ERN2 (unknown origin) at 1 uM by SelectScreen assay relative to control
[30] = biological target: Mitogen-activated protein kinase 3 (Homo sapiens) (UniProt P27361); test: Inhibition of ERK1 (unknown origin) at 1 uM by SelectScreen assay relative to control
[31] = biological target: Serine/threonine-protein kinase pim-1 (Homo sapiens) (UniProt P11309); test: Inhibition of PIM1 (unknown origin) at 1 uM by SelectScreen assay relative to control
[32] = biological target: Serine/threonine-protein kinase mTOR (Homo sapiens) (UniProt P42345); test: Inhibition of mTOR (unknown origin) at 1 uM by SelectScreen assay relative to control
[33] = biological target: Epidermal growth factor receptor (Homo sapiens) (UniProt P00533); test: Inhibition of EGFR (unknown origin) at 1 uM by SelectScreen assay relative to control
[34] = biological target: Platelet-derived growth factor receptor alpha (Homo sapiens) (UniProt P16234); test: Inhibition of PDGFR-alpha (unknown origin) at 1 uM by SelectScreen assay relative to control

For `C[C@@H](Nc1ccc2[nH]nc(-n3cncn3)c2c1)c1cc(F)ccc1OCC(F)F`, the inhibition [1] was 101%, the inhibition [2] was 98% and the inhibition [3] was 98%. It also gave an inhibition [4] of 79%, an inhibition [5] of 79% and an inhibition [6] of 78%. The inhibition [7] was 78%, the inhibition [8] was 78% and the inhibition [9] was 72%. For the same compound, the inhibition [10] was 70%, the inhibition [11] was 64% and the inhibition [12] was 53%. It also gave an inhibition [13] of 52%, an inhibition [14] of 49% and an inhibition [15] of 37%. It also gave an inhibition [16] of 33%, an inhibition [17] of 20% and an inhibition [18] of 20%. The inhibition [19] was 19%, the inhibition [20] was 17% and the inhibition [21] was 12%. For the same compound, the inhibition [22] was 11%, the inhibition [23] was 11% and the inhibition [24] was 9%. For the same compound, the inhibition [25] was 8%, the inhibition [26] was 6% and the inhibition [27] was 6%. For the same compound, the inhibition [28] was 6%, the inhibition [29] was 6% and the inhibition [30] was 6%. The inhibition [31] was 5%, the inhibition [32] was 3% and the inhibition [33] was 3%. It also gave an inhibition [34] of -1%.
